The entries are a selection whose mix differs from that of the whole data set. Some tests of the compounds listed are not included; inactive here does not mean inactive elsewhere. Active and inactive are the calls of the source.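 How the source made its calls: active means Hck-Nef kinase inhibition above about 50% (limit read from the data); inactive means inhibition below that limit.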
molecular target: Tyrosine-protein kinase HCK (Homo sapiens) (UniProt P08631); test: Hck:Nef complex kinase activity blockers – biochemical, Z-Lyte FRET, 384-well, Hck-YEEI, primary screen (AID 463187); details: Recombinant Hck-YEEI plus Nef, Z-Lyte FRET kinase assay; at 20 µM; hits give high values;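 further: 0% = DMSO with Hck plus Nef and 100% = Hck alone without Nef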

Sequences of proteins named here, by UniProt entry; tags and fusion partners are left off.
UniProt P08631, whole entry, looked up: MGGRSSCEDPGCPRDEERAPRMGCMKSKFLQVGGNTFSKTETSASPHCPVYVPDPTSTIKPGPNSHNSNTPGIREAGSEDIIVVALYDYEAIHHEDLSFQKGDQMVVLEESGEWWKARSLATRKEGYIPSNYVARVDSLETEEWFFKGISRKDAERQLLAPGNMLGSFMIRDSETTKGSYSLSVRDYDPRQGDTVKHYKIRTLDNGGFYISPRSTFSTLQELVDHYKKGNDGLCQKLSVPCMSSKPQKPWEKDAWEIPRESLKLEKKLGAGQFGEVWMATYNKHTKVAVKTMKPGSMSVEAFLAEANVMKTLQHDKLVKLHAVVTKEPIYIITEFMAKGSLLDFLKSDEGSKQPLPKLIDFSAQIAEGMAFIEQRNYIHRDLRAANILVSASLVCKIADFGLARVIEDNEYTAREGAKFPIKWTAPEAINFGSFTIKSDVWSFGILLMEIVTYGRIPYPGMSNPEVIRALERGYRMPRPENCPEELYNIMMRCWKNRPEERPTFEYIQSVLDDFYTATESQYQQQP

| SMILES | inhibition |
| --- | --- |
| COc1cccc(C(=O)NCC2(N3CCCCC3)CCCCC2)c1 | inactive: 17.2% |
| CN(C)c1cccc(C(=O)NCC2(N(C)C)CCCCC2)c1 | inactive: 1.86% |
| COc1ccc(Br)c(C(=O)NCC2(N3CCCCC3)CCCCC2)c1 | inactive: 3.73% |
| O=C(OC1CN2CCC1CC2)C(CO)(c1ccccc1)c1ccccc1 (stereo unspecified) | inactive: 0.575% |
| CC(C)N1C(=O)CC2(CCN(CCOC(=O)C(O)(c3ccccc3)c3ccccc3)CC2)C1=O | inactive: -0.897% |
| CCN(CC)CC(C)C(C)OC(=O)C(O)(c1ccccc1)c1ccccc1 (stereo unspecified) | inactive: 18.7% |
| O=C(NCC1(N2CCCCC2)CCCCC1)c1cc([N+](=O)[O-])ccc1Cl | inactive: 16.7% |
| CCN1CCCC(OC(=O)C2(O)c3ccccc3C=Cc3ccccc32)C1 (stereo unspecified) | inactive: 4.69% |
| C=CCN1CCN(CCOC(=O)C(O)(c2ccccc2)c2ccccc2)CC1 | inactive: 17.4% |
| Cc1ccccc1C(=O)NCC1(N2CCCCC2)CCCCC1 | inactive: 20.7% |
| CN(C)C1CCCC1OC(=O)C(O)(c1ccccc1)c1ccccc1 (stereo unspecified) | inactive: 0.899% |

Source: PubChem BioAssay AID463187 (University of Pittsburgh Molecular Library Screening Center, 2010)
